For 1 molecule, MIC results are on record in DBAASP.

This test relates to Staphylococcus aureus ATCC 12600. Description: ≥ marks a high value that may be exact or a test limit, other limits are often not marked, values filed in µg/mL are converted to µM.

In turn, `CC(C)C[C@H](NC(=O)[C@@H](N)C(C)C)C(=O)N[C@@H](CC(N)=O)C(=O)N[C@@H](CCC(=O)O)C(=O)N[C@@H](CC(N)=O)C(=O)N[C@@H](C)C(=O)N[C@@H](C)C(=O)N[C@@H](CCCN=C(N)N)C(=O)O` [VLNENAAR] came in with an MIC not below 128 µM.

For orientation: MIC means the lowest concentration that inhibits growth of the organism. Low readings indicate greater potency, high ones weaker potency.
